{"sequences": {"note": "Chains of the proteins cited; added tags and fusions are not shown.", "UniProt P35372, whole entry, looked up": "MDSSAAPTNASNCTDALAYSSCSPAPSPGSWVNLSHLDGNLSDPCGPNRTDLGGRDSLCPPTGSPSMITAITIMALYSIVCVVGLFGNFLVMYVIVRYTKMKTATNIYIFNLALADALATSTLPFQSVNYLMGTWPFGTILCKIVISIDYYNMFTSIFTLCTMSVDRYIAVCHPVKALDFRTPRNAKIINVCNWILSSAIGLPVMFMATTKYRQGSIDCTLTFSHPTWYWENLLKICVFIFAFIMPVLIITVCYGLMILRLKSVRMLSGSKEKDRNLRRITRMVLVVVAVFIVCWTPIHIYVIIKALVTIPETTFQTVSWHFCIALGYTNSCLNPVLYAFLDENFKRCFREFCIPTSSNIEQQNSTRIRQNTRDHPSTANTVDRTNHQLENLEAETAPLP", "UniProt P41143, whole entry, looked up": "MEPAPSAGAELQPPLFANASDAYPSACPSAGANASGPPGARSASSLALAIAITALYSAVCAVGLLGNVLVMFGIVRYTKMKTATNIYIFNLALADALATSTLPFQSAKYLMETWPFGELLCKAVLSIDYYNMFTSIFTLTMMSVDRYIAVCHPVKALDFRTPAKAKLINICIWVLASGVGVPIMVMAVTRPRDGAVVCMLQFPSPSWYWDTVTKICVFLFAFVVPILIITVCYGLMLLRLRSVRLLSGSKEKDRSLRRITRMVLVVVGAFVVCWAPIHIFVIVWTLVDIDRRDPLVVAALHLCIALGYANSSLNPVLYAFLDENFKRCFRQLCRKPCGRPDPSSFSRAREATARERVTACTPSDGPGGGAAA"}, "source": "PubChem BioAssay AID504326", "about": "(The Scripps Research Institute Molecular Screening Center, 2011)", "note": "The entries are a selection whose mix differs from that of the whole data set. Activity calls are given as the source filed them. No stated cut-off is given here; in the data, active means activation above about 18%; inactive means the rest."}
{"biological_target": "Mu-type opioid receptor (Homo sapiens) + Delta-type opioid receptor (Homo sapiens) (UniProt P35372+P41143)", "experiment": "agonists of OPRM1-OPRD1 heterodimerization, primary screen, cell-based, luminescence (AID 504326);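 further: 0% = vehicle-treated cells and 100% = reference agonist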", "conditions": "cells, at 9.3 µM, active compounds read high"}
{"compound": "CCOC(=O)C(CC)C1=NC(C)(C)Cc2ccccc21.O=[N+]([O-])c1cc([N+](=O)[O-])c(O)c([N+](=O)[O-])c1", "note": "(configuration not stated)", "activation": "inactive: -1.11%"}
{"compound": "CN(C)C1(CNC(=O)c2ccc(S(C)(=O)=O)cc2)CCCCC1", "activation": "inactive: 3.38%"}
{"compound": "CC1=C2N=C(C=C3N=C(C(C)=C4[N-][C@@](C)([C@@H]5N=C1[C@](C)(CCC(=O)NC[C@@H](C)OP(=O)([O-])O[C@H]1[C@@H](O)[C@@H](n6cnc7cc(C)c(C)cc76)O[C@@H]1CO)[C@H]5CC(N)=O)[C@@](C)(CC(N)=O)[C@@H]4CCC(N)=O)[C@@](C)(CC(N)=O)[C@@H]3CCC(N)=O)C(C)(C)[C@@H]2CCC(N)=O.[C-]#N.[Co+3]", "activation": "inactive: -2.5%"}
{"compound": "O=[N+]([O-])c1cc([N+](=O)[O-])c(Nc2nnnn2CCO)c([N+](=O)[O-])c1", "activation": "inactive: -3.6%"}
{"compound": "CCCOc1ccc(NP(C)(=O)Oc2ccc(Cl)cc2)cc1", "note": "(configuration not stated)", "activation": "inactive: 2.55%"}
{"compound": "CP(=O)(Nc1ccc(SC(F)(F)F)cc1)Oc1ccccc1", "note": "(configuration not stated)", "activation": "inactive: 2.48%"}
{"compound": "COc1ccccc1OP(C)(=O)Nc1c(C)cccc1C", "note": "(configuration not stated)", "activation": "inactive: -2.44%"}
{"compound": "CN1CCCCC1COC(=O)C1(O)c2ccccc2CCc2ccccc21", "note": "(configuration not stated)", "activation": "inactive: 0.78%"}
{"compound": "O=[N+]([O-])c1cc([N+](=O)[O-])c(-n2nnc3ccccc32)c([N+](=O)[O-])c1", "activation": "inactive: -2.74%"}
{"compound": "Cc1nc2ccc3ccccc3c2s1.O=[N+]([O-])c1cc([N+](=O)[O-])c(O)c([N+](=O)[O-])c1", "activation": "inactive: -3.5%"}
{"compound": "O=[N+]([O-])c1cc([N+](=O)[O-])c(-c2cnn(-c3ccccc3)c2)c([N+](=O)[O-])c1", "activation": "inactive: 16.7%"}
{"compound": "CCOC(=O)c1ccc(NP(C)(=O)Oc2cc(C)cc(C)c2)cc1", "note": "(configuration not stated)", "activation": "inactive: 0.5%"}
{"compound": "Cc1cc(C)cc(OP(C)(=O)Nc2ccc(C)cc2C)c1", "note": "(configuration not stated)", "activation": "inactive: 3.03%"}
{"compound": "COc1ccccc1OP(C)(=O)Nc1cccc(Br)c1", "note": "(configuration not stated)", "activation": "inactive: 0.94%"}
{"compound": "COc1cc(C(=O)NCC2(N3CCOCC3)CCCCC2)cc(Cl)c1OC(C)C", "activation": "inactive: 3.38%"}
{"compound": "Cc1ccc(C)c(NP(C)(=O)Oc2ccccc2)c1", "note": "(configuration not stated)", "activation": "inactive: 0.65%"}
{"compound": "Cc1cc(C)cc(OP(C)(=O)Nc2ccccn2)c1", "note": "(configuration not stated)", "activation": "inactive: -2.3%"}
{"compound": "CP(=O)(Nc1cccc(Br)c1)Oc1ccccc1", "note": "(configuration not stated)", "activation": "inactive: -2.39%"}
{"compound": "O=C(O)c1cccc(Nc2c([N+](=O)[O-])cc([N+](=O)[O-])cc2[N+](=O)[O-])c1", "activation": "inactive: -2.63%"}
{"compound": "CC1=NCCc2c1[nH]c1ccccc21.O=[N+]([O-])c1cc([N+](=O)[O-])c(O)c([N+](=O)[O-])c1", "activation": "inactive: -0.44%"}
{"compound": "CN(C(=O)Cc1ccc(Cl)c(Cl)c1)[C@H]1CC[C@@]2(CCCO2)C[C@@H]1N1CCCC1", "activation": "active: 46.1%"}
{"compound": "O=[N+]([O-])c1ccc2c(c1)C=Nc1ccccc1O2", "activation": "inactive: 2.07%"}
{"compound": "Cc1cccc(C)c1OP(C)(N)=O", "note": "(configuration not stated)", "activation": "inactive: -0.85%"}
{"compound": "CC(C)(C)c1ccc(OP(C)(=O)Nc2ccc(SC(F)(F)F)cc2)cc1", "note": "(configuration not stated)", "activation": "inactive: 3.62%"}
{"compound": "COc1cc(C(=O)NCC2(N3CCOCC3)CCCCC2)ccc1OCC(C)C", "activation": "inactive: 0.38%"}
{"compound": "O=[N+]([O-])c1cc([N+](=O)[O-])c(Nc2cccnc2)c([N+](=O)[O-])c1", "activation": "inactive: -0.77%"}
{"compound": "Cc1cc(C)cc(OP(C)(N)=O)c1", "note": "(configuration not stated)", "activation": "inactive: -3.12%"}
{"compound": "COc1ccc(OP(C)(=O)Nc2cccc(F)c2)cc1", "note": "(configuration not stated)", "activation": "inactive: -0.54%"}
{"compound": "COc1ccccc1OP(C)(=O)Nc1cc(Cl)ccc1C", "note": "(configuration not stated)", "activation": "inactive: -1.4%"}
{"compound": "Cc1ccc(NP(C)(=O)Oc2ccccc2)c(C)c1", "note": "(configuration not stated)", "activation": "inactive: -0.92%"}
{"compound": "COc1ccccc1OP(C)(=O)Nc1ccc(C)cc1", "note": "(configuration not stated)", "activation": "inactive: -0.84%"}
{"compound": "CCOC(=O)c1ccc(NP(C)(=O)Oc2ccccc2)cc1", "note": "(configuration not stated)", "activation": "inactive: 0.75%"}
{"compound": "CCN(CC)CCn1c(NCc2ccc(OC)cc2)nc2ccccc21", "activation": "inactive: -1.33%"}
{"compound": "CCN(CC)CCCOC(=O)C(O)(c1ccccc1)c1ccccc1", "activation": "inactive: -2.02%"}
{"compound": "Cc1ccc(S(=O)(=O)NCCC(=O)N2CCN(C/C=C/c3ccccc3)CC2)cc1", "activation": "inactive: -1%"}
{"compound": "Cc1cc(C)cc(OP(C)(=O)Nc2ccc(SC(F)(F)F)cc2)c1", "note": "(configuration not stated)", "activation": "inactive: 9.65%"}
{"compound": "CP(=O)(NC(=O)Nc1ccccc1)Oc1ccccc1", "note": "(configuration not stated)", "activation": "inactive: 1.09%"}
{"compound": "CCc1ccc(OP(C)(=O)N2CCN(c3ccc([N+](=O)[O-])cc3)CC2)cc1", "note": "(configuration not stated)", "activation": "inactive: -1.76%"}
{"compound": "CP(=O)(Oc1ccccc1)OC(c1ccccc1)C(F)(F)F", "note": "(configuration not stated)", "activation": "inactive: -1.42%"}
{"compound": "Cc1cccc(C)c1OP(C)(=O)Nc1ccc(SC(F)(F)F)cc1", "note": "(configuration not stated)", "activation": "inactive: -0.06%"}
{"compound": "CP(=O)(Nc1ccccn1)Oc1ccc(Cl)cc1", "note": "(configuration not stated)", "activation": "inactive: -1.85%"}
{"compound": "CCOC(=O)c1ccc(NP(C)(=O)Oc2ccc(OC)cc2)cc1", "note": "(configuration not stated)", "activation": "inactive: 2.43%"}
{"compound": "CCOP(C)(=S)SCC(=O)NC(C)C(=O)O", "note": "(configuration not stated)", "activation": "inactive: 0.21%"}
{"compound": "CCCCOc1ccc(C(=O)NCC2(N3CCCCC3)CCCCC2)cc1OC", "activation": "inactive: -0.26%"}
{"compound": "CP(=O)(Nc1ccccc1Br)Oc1ccccc1", "note": "(configuration not stated)", "activation": "inactive: -3.06%"}
{"compound": "COc1ccccc1OP(C)(=O)Nc1ccccc1", "note": "(configuration not stated)", "activation": "inactive: -1.97%"}
{"compound": "C=CCC1(Nc2ccccc2)CC(C)N(C)CC1C", "note": "(configuration not stated)", "activation": "inactive: -1.86%"}
{"compound": "CP(=S)(Nn1cnnc1)Oc1ccccc1", "note": "(configuration not stated)", "activation": "inactive: -2.28%"}
{"compound": "CCOC(=O)c1ccc(NP(C)(=O)Oc2ccc(Cl)cc2)cc1", "note": "(configuration not stated)", "activation": "inactive: -0.81%"}
{"compound": "CP(=O)(OC12CC3CC(CC(C3)C1)C2)OC12CC3CC(CC(C3)C1)C2", "activation": "inactive: 7.21%"}
{"compound": "O=C(OCCCN1CCCC1)C(O)(c1ccccc1)C1CCCCC1", "note": "(configuration not stated)", "activation": "inactive: -3.39%"}
{"compound": "COc1ccccc1OP(C)(=O)Nc1c(C)n(C)n(-c2ccccc2)c1=O", "note": "(configuration not stated)", "activation": "inactive: -2.7%"}
{"compound": "CCc1ccc(OP(C)(=O)Nc2cccnc2)cc1", "note": "(configuration not stated)", "activation": "inactive: 0.15%"}
{"compound": "CP(=O)(Oc1ccccc1)N1CCOC1=O", "note": "(configuration not stated)", "activation": "inactive: -2.33%"}
{"compound": "COc1ccc(OP(C)(=O)Nc2ccc(Br)cc2)cc1", "note": "(configuration not stated)", "activation": "inactive: -0.2%"}
{"compound": "CCN(CC)CC(O)COC(=O)C(O)(c1ccccc1)C1CCCCC1", "note": "(configuration not stated)", "activation": "inactive: -1.96%"}
{"compound": "CN(C)C(=O)c1c([N+](=O)[O-])cc([N+](=O)[O-])cc1[N+](=O)[O-]", "activation": "inactive: 10%"}
